Molecular target: Amine oxidase [flavin-containing] A (Homo sapiens, UniProt P21397)
Experiment: Inhibition of human MAO-A expressed in baculovirus infected BTI insect cells by fluorescence method

Protein sequences, listed by entry. Tags and fused reporters are not part of them.
UniProt P21397, whole entry: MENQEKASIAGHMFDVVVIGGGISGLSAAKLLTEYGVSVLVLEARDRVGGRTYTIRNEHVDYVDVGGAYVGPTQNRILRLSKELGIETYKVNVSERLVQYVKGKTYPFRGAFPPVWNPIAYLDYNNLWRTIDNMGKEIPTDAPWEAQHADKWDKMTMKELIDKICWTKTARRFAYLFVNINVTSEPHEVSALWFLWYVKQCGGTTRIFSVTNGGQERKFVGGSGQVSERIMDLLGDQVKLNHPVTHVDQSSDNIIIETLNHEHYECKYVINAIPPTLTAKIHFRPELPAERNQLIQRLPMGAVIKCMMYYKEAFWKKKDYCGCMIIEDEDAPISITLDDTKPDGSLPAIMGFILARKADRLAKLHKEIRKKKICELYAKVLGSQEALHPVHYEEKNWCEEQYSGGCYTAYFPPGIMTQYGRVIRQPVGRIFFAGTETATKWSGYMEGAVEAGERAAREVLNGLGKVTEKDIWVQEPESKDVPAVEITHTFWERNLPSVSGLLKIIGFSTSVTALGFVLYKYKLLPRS

| SMILES | IC50 | IC50 (bti) |
| --- | --- | --- |
| NC1CC12CCc1ccccc12 (stereo in doubt; 32) | > 100 µM |  |
| NC1CC12CCc1ccccc12 (stereo in doubt; 33) |  | > 100 µM |

Reference: ChEMBL document CHEMBL4813911 (J Med Chem, 2020)
